Results as given in patent US7622446B2, “Polypeptides, derivatives and uses thereof” (The Open University, priority 2001, dated 2009).

Tested on: chicks
Experiment: Effect of β-amyloid 12-28 on memory formation, passive avoidance task, strong training
Assay type: in vivo, chick
Details: FIG. 2; injected into the brain 30 minutes pretraining; memory tested 30 minutes posttraining
Method: Commercially obtained Ross Chunky eggs were incubated and hatched in brooders and held until 16±6 hours old. Chicks were placed in pairs in small aluminium pens. Following an equilibration period of an hour, the chicks were pretrained and trained essentially as described by Lossner and Rose (J. Neurochem. 41, 1357-1363 (1983), the contents of which are incorporated herein by reference). Pretraining involved three 10 s presentations of a small (2 mm diameter) white bead, at approximately 5 minute intervals. […] Two training techniques were used: “strong” and “weak” training. In both, 5 to 10 minutes after the last pre-training trial, chicks were trained by a 10 s presentation of a 4 mm diameter chrome bead, which had been dipped in the bitter-tasting methylanthranilate. Control chicks pecked at a water-coated or dry bead. In the “strong” version of the task, 100% methylanthranilate was used. In the “weak” version, 10% methylanthranilate was used. Chicks spontaneously pecked at the training or control beads within 20 s. Chicks that peck at the bitter bead evinced a disgust reaction and would not normally peck at a similar, but dry bead for some hours subsequently. […] Recall is calculated as a percent avoidance score (percentage of chicks which avoid the chrome bead) and as a discrimination score (percentage of chicks which avoid the chrome but peck at the white bead). […]

Substance: Val-His-His-Gln-Lys-Leu-Val-Phe-Phe-Ala-Glu-Asp-Val-Gly-Ser-Asn-Lys (VHHQKLVFFAEDVGSNK) [β-amyloid 12-28, amnesia-inducing agent]
- effect on memory formation (percent avoidance: total avoidance and discrimination): results in amnesia
